# Apparent affinities of Ab-14 variants for a coronavirus HR2 peptide

Target peptide (SARS-CoV-2 spike, HR2 region): PDVDLGDISGINAS

Parent scFv Ab-14: VH joined to VL by a 15-residue (Gly4Ser)3 linker. Changes lie in the light chain CDRs alone.
VH: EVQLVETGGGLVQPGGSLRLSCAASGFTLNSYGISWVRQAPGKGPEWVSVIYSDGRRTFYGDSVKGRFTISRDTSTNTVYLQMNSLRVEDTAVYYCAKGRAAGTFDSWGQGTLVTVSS
VL: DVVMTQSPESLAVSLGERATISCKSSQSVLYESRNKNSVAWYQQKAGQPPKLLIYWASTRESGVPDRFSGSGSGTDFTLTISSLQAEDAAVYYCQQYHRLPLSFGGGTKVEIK

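Phage display of a naive human antibody library on the peptide gave the parent. In library AAYL50, one, two or three CDR residues were substituted; doubles and triples were drawn at random. AlphaSeq pools MATa yeast showing the antibodies with MATalpha yeast showing the peptide. Mating (16 h, 30 °C) was followed by selection of diploids and sequencing of their barcodes. A regression on co-assayed BCL2-family reference pairs converts the normalised counts of each replicate to an apparent Kd. The assay was run in three technical replicates.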

Each variant's VL is given in full. Every variant below is changed at R99 of the VL (sequential numbering). Numbers give log10(Kd / nM), so 0 is 1 nM and 3 is 1 µM. Smaller is tighter. Averages over replicates are reported, and they cover detected replicates only. "no signal" means that the variant was in the library but no mating with the target was seen in any replicate; the authors take this as a sign of poor binding, and no number exists. Background: pairings of library AAYL50 with three empty control strains gave a value in 18% of cases (median 4.19, 5th percentile 2.99). Values in that range, when seen in few replicates, are hard to tell from nonspecific mating.

With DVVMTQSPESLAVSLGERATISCKSSQSVLYESRNKNSVAWYQQKAGQPPKLLIYWAFTREAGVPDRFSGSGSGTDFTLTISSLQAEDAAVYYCQQYHVLPLSFGGGTKVEIK the result was 2.64 (3 of 3 replicates). For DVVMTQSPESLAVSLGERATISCKQSQSVLYESRNKNSVAWYQQKAGQPPKLLIYWASTRESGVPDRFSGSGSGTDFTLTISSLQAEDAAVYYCRQYHALPLSFGGGTKVEIK, the assay gave 1.87 (3 of 3 replicates). With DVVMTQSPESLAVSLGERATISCKSSYSVLYESRNKNSVAWYQQKAGQPPKLLIYWASTRESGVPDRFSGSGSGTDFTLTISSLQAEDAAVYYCQQYHELPLAFGGGTKVEIK the result was 1.92 (3 of 3 replicates). With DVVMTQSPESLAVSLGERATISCKSSQSVLYESRNKNSVAWYQQKAGQPPKLLIYWASEVESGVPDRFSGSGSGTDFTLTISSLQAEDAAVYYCQQYHFLPLSFGGGTKVEIK the result was 3.06 (3 of 3 replicates). With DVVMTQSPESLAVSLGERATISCKSSQMVLYESRNSNSVAWYQQKAGQPPKLLIYWASTRESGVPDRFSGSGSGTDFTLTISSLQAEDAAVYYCQQYHLLPLSFGGGTKVEIK the result was 2.46 (3 of 3 replicates). The variant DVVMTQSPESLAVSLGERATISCKGSQDVLYESRNKNSVAWYQQKAGQPPKLLIYWASTRESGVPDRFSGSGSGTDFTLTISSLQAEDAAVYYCQQYHILPLSFGGGTKVEIK gave no signal (0 of 3 replicates). The variant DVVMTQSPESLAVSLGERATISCKSSQSVLYERRNKNSVAWYQQKAGQPPKLLIYWASTRESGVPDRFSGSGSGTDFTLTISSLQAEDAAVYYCQQYHYLELSFGGGTKVEIK gave no signal (0 of 3 replicates).

The variant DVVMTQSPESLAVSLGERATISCKSSQSVLYESRNKNSNAWYQQKAGQPPKLLIYWASTQESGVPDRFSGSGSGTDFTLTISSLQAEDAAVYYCQQYHQLPLSFGGGTKVEIK showed no signal (0 of 3 replicates). The variant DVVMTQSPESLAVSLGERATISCKSSQSVLYESPNKNSVAWYQQKAGQPPKLLIYWASTRESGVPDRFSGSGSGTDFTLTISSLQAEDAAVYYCQQYHHLPASFGGGTKVEIK gave no signal (0 of 3 replicates). With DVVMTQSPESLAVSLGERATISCKSSQSVLYESRNKNSDAWYQQKAGQPPKLLIYWASTRESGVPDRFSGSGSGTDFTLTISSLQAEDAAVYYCQQYHPLPLSFGGGTKVEIK the result was no signal (0 of 3 replicates). For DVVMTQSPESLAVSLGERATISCKSSQSVLYESRNKNSVAWYQQKAGQPPKLLIYWKSTRESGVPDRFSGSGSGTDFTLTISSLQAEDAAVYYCQQDHTLPLSFGGGTKVEIK, the assay gave 4.14 (1 of 3 replicates). The variant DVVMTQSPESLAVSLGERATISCKSSQSVLYESRNKNSVAWYQQKAGQPPKLLIYWASTRESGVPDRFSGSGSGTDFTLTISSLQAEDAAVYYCNQYHQLPLSFGGGTKVEIK gave 1.40 (3 of 3 replicates). For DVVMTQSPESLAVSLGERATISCKSSQSVLYESRNKNDVAWYQQKAGQPPKLLIYWASERESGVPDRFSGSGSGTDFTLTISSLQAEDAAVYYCQQYHQLPLSFGGGTKVEIK, the assay gave 3.19 (3 of 3 replicates). With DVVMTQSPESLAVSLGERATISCKSSQSVLYESYNKNSVAWYQQKAGQPPKLLIYWASTRESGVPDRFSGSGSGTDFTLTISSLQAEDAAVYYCQQFHDLPLSFGGGTKVEIK the result was no signal (0 of 3 replicates).

The variant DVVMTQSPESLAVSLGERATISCKSSFSVLYESRPKNSVAWYQQKAGQPPKLLIYWASTRESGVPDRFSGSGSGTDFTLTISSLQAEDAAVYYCQQYHDLPLSFGGGTKVEIK gave 1.60 (3 of 3 replicates). For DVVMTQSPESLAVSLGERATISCKSSQSVLYESRNKNSVAWYQQKAGQPPKLLIYWASTLESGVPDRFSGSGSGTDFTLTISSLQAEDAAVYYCQQYHTLPLSFGGGTKVEIK, the assay gave no signal (0 of 3 replicates). With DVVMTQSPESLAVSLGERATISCKSSQIVLYESRNKNSVAWYQQKAGQPPKLLIYWASNRESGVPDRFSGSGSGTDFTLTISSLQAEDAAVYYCQQYHWLPLSFGGGTKVEIK the result was no signal (0 of 3 replicates). The variant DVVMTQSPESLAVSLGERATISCKSSQSVLYVSLNKNSVAWYQQKAGQPPKLLIYWASTRESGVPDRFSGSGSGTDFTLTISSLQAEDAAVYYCQQYHGLPLSFGGGTKVEIK gave 3.66 (1 of 3 replicates). With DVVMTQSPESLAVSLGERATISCKSSQSVMYESRWKNSVAWYQQKAGQPPKLLIYWASTRESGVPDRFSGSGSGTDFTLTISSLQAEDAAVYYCQQYHELPLSFGGGTKVEIK the result was 2.09 (3 of 3 replicates). The variant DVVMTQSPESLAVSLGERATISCKSSQSVLYESRNKNSVTWYQQKAGQPPKLLIYWASTREKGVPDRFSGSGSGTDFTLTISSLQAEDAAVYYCQQYHKLPLSFGGGTKVEIK showed 3.65 (1 of 3 replicates). The variant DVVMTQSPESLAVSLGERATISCKSSQSVLYERRNKNSVAWYQQKAGQPPKLLIYWASTREQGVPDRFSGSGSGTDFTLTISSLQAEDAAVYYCQQYHYLPLSFGGGTKVEIK gave 2.52 (2 of 3 replicates).

The variant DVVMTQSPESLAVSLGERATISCKSSQSVLYESRNKNSVAWYQQKAGQPPKLLIYWASTRESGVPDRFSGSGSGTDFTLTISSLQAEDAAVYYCQQYHWLPLSFGGGTKVEIK gave no signal (0 of 3 replicates). The variant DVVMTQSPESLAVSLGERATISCKSSISVLYESRPKNSVAWYQQKAGQPPKLLIYWASTRESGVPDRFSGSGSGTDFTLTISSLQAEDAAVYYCQQYHFLPLSFGGGTKVEIK showed no signal (0 of 3 replicates).

Extract of 3 entries:

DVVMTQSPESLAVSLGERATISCKSSISVLYESRPKNSVAWYQQKAGQPPKLLIYWASTRESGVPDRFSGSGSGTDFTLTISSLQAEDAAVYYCQQYHFLPLSFGGGTKVEIK: no signal (0 of 3 replicates).
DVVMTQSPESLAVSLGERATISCKSSQSVLYERRNKNSVAWYQQKAGQPPKLLIYWASTREQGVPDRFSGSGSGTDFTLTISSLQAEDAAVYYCQQYHYLPLSFGGGTKVEIK: 2.52 (2 of 3 replicates).
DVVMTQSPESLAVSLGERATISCKSSQSVLYESRNKNSVAWYQQKAGQPPKLLIYWAFTREAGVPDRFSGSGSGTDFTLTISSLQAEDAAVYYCQQYHVLPLSFGGGTKVEIK: 2.64 (3 of 3 replicates).

Data: MIT Lincoln Laboratory AlphaSeq set, Engelhart et al. 2022, doi:10.1038/s41597-022-01779-4, as distributed in FLAb.